Assay: soluble on expression in E. coli; label from the status in PepcDB or PDB records

Row | Sequence | soluble on expression in E. coli
1 | MSPILGYWKIKGLVQPTRLLLEYLEEKYEEHLYERDEGDKWRNKKFELGLEFPNLPYYIDGDVKLTQSMAIIRYIADKHNMLGGCPKERAEISMLEGAVLDIRYGVSRIAYSKDFETLKVDFLSKLPEMLKMFEDRLCHKTYLNGDHVTHPDFMLYDALDVVLYMDPMCLDAFPKLVCFKKRIEAIPQIDKYLKSSKYIAWPLQGWQATFGGGDHPPKSDLVPRGSSYYQEAKSSKIMESFKNMVPQQALVNSS | soluble
2 | MIRLYPEQLRAQLNEGLRAAYLLLGNDPLLLQESQDAVRQVAAAQGFEEHHTFSIDPNTDWNAIFSLCQAMSLFASRQTLLLLLPENGPNAAINEQLLTLTGLLHDDLLLIVRGNKLSKAQENAAWFTALANRSVQVTCQTPEQAQLPRWVAARAKQLNLELDDAANQVLCYCYEGNLLALAQALERLSLLWPDGKLTLPRVEQAVNDAAHFTPFHWVDALLMGKSKRALHILQQLRLEGSEPVILLRTLQRELLLLVNLKRQSAHTPLRALFDKHRVWQNRRGMMGEALNRLSQTQLRQAVQLLTRTELTLKQDYGQSVWAELEGLSLLLCHKPLADVFIDG | soluble
3 | SATEPPSPLRVEAPGPPEMRTSPAIESTPEGTPQPAGGRLRFLNGCVPLSHQVAGHMYGKDKVGILQHPDGTVLKQLQPPPRGPRELEFYNMVYAADCFDGVLLELRKYLPKYYGIWSPPTAPNDLYLKLEDVTHKFNKPCIMDVKIGQKSYDPFASSEKIQQQVSKYPLMEEIGFLVLGMRVYHVHSDSYETENQHYGRSLTKETIKDGVSRFFHNGYCLRKDAVAASIQKIEKILQWFENQKQLNFYASSLLFVYEGSSQPTTTKLNDRTLAEKFLSKGQLSDTEVLEYNNNFHVLSSTANGKIESSVGKSLSKMYARHRKIYTKKHHSQTSLKVENLEQDNGWKSMSQEHLNGNVLSQLEKVFYHLPTGCQEIAEVEVRMIDFAHVFPSNTIDEGYVYGLKHLISVLRSILDN | not soluble
4 | MRWYPWLRPDFEKLVASYQAGRGHHALLIQALPGMGDDALIYALSRYLLCQQPQGHKSCGHCRGCQLMQAGTHPDYYTLAPEKGKNTLGVDAVREVTEKLNEHARLGGAKVVWVTDAALLTDAAANALLKTLEEPPAETWFFLATREPERLLATLRSRCRLHYLAPPPEQYAVTWLSREVTMSQDALLAALRLSAGSPGAALALFQGDNWQARETLCQALAYSVPSGDWYSLLAALNHEQAPARLHWLATLLMDALKRHHGAAQVTNVDVPGLVAELANHLSPSRLQAILGDVCHIREQLMSVTGINRELLITDLLLRIEHYLQPGVVLPVPHL | soluble
5 | MSGWESYYKTEGDEEAEEEQEENLEASGDYKYSGRDSLIFLVDASKAMFESQSEDELTPFDMSIQCIQSVYISKIISSDRDLLAVVFYGTEKDKNSVNFKNIYVLQELDNPGAKRILELDQFKGQQGQKRFQDMMGHGSDYSLSEVLWVCANLFSDVQFKMSHKRIMLFTNEDNPHGNDSAKASRARTKAGDLRDTGIFLDLMHLKKPGGFDISLFYRDIISIAEDEDLRVHFEESSKLEDLLRKVRAKETRKRALSRLKLKLNKDIVISVGIYNLVQKALKPPPIKLYRETNEPVKTKTRTFNTSTGGLLLPSDTKRSQIYGSRQIILEKEETEELKRFDDPGLMLMGFKPLVLLKKHHYLRPSLFVYPEESLVIGSSTLFSALLIKCLEKEVAALCRYTPRRNIPPYFVALVPQEEELDDQKIQVTPPGFQLVFLPFADDKRKMPFTEKIMATPEQVGKMKAIVEKLRFTYRSDSFENPVLQQHFRNLEALALDLMEPEQAVDLTLPKVEAMNKRLGSLVDEFKELVYPPDYNPEGKVTKRKHDNEGSGSKRPKVEYSEEELKTHISKGTLGKFTVPMLKEACRAYGLKSGLKKQELLEALTKHFQD | soluble
6 | MIPGEYHVKPGQIALNTGRATCRVVVENHGDRPIQVGSHYHFAEVNPALKFDRQQAAGYRLNIPAGTAVRFEPGQKREVELVAFAGHRAVFGFRGEVMGPLEVNDE | soluble

From the DeepSol protein solubility set
